Results published in patent publication US20250154108A1 (priority 2022, published 2025).

Target: cardiac myosin ATPase (Bos taurus (Bovine), UniProt Q9BE39)
Conditions: read-out: IC50 of the inhibitory effect on cardiac myosin ATPase activity; cardiac myosin S1 with actin/cardiac tropomyosin/troponin complex, 37° C., 360 nm

C[C@H](NC1=CC(=O)C2(CCCC2)C(=O)N1)c1cc(F)ccc1F [Compound of formula (I)]
IC50: 0.22 µM
